The numbers were not newly measured in patent publication US20090221522A1, “METHODS TO CORRECT GENE SET EXPRESSION PROFILES TO DRUG SENSITIVITY” (The Johns Hopkins University, priority 2008, published 2009), which cites them from elsewhere.

This data set concerns Her2-positive breast cancer. The note with it: Her2-positive breast cancer patients; cited from earlier work.

As for trastuzumab, the objective response result is reported as “about 34%”.
